This passage reports IC50 results from patent US20210198269A1, “INHIBITORS OF GLUCOSE TRANSPORTERS (GLUTs)” (LEAD DISCOVERY CENTER GMBH, priority 2018, published 2021).

Protein sequences, listed by entry. Tags and fused reporters are not part of them.
UniProt P14672, whole entry: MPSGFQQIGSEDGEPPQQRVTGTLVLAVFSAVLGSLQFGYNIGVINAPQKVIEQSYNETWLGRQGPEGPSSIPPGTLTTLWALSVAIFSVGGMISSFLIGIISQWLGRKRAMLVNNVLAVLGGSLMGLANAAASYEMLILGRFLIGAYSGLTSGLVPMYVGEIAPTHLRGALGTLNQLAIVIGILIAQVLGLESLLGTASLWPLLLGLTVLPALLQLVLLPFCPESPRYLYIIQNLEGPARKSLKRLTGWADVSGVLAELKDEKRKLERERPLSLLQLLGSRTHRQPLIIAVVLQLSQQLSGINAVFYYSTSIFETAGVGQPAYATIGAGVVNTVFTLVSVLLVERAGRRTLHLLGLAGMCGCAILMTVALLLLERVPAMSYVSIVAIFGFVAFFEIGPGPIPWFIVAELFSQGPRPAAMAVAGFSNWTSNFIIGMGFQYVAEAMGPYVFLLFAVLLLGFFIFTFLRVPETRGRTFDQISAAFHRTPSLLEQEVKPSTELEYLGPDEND
UniProt P11166, whole entry: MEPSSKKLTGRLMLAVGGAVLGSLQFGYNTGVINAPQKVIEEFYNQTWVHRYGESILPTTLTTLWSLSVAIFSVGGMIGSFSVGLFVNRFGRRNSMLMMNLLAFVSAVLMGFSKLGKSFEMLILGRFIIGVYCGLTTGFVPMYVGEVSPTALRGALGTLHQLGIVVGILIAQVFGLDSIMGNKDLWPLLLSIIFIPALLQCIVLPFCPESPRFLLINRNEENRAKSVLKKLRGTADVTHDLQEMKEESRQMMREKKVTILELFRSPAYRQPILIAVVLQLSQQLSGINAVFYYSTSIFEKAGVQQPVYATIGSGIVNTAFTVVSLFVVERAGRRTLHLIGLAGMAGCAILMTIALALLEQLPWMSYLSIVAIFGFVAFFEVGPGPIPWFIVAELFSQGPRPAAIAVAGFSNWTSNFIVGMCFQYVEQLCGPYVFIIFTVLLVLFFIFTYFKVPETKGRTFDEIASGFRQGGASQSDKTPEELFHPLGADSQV
UniProt P11169, whole entry: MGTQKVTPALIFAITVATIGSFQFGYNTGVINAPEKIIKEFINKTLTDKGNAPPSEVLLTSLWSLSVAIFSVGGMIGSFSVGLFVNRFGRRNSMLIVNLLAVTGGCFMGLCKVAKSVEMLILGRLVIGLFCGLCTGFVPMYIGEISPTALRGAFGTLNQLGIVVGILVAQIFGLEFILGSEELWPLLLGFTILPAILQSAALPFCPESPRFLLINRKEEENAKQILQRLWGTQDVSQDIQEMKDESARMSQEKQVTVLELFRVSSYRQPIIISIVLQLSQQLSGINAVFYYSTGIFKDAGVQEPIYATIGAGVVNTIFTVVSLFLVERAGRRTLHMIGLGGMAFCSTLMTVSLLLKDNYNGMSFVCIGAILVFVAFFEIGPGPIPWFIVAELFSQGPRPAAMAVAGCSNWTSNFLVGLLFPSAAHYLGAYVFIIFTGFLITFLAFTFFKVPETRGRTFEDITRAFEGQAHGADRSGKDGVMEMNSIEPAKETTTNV
UniProt P11168, whole entry: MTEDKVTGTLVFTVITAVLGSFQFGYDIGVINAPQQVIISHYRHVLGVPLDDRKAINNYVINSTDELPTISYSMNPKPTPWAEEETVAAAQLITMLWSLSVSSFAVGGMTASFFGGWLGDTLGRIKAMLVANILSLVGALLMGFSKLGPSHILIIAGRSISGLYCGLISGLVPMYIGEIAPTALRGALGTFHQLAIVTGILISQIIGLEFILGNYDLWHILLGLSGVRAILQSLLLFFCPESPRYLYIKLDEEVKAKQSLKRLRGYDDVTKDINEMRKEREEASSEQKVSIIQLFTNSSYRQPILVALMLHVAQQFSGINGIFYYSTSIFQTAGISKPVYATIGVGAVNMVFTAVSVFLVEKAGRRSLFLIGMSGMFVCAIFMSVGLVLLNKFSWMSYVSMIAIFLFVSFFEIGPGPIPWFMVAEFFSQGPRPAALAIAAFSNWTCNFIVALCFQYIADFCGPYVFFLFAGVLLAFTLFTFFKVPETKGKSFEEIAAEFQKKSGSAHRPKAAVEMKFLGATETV

As usually defined, the IC50 is the concentration that inhibits the measured activity by half.

One assay deals with GLUT4 (Homo sapiens, UniProt P14672). The assay can be described thus: GLUT4 transporter activity assay (2-DG uptake) in CHO-hGLUT4 cells. The format is cell-based. Particulars: read-out: GLUT4 inhibitory activity (IC50); CHO-hGLUT4 cell line. The protocol: CHOK1-SLC2A4 cells were generated by transfection of CHOK1 cells with pCMV6-Entry-GLUT4 (Origene #SC125240) using Lipofectamin2000 according to the supplier's instructions. Briefly, 1.5E5 cells/well CHOK1 cells were seeded in 6-well cell culture plates. After overnight incubation, DNA-lipid complexes (2 μg plasmid DNA, DNA:lipid ratio 1:10) were prepared in OptiMEM and then added to the cells. After 5 days incubation, 800 μg G418 was added to the culture medium to generate a stable polyclone. For monoclone selection, single cells were re-plated in 96-well plates, expanded and selected by transgene overexpression and functional performance.
(§1) GLUT 1, 2, 3 and 4 Transporter Activity Assays
(§2) Assays were based on the specificity assays reported by Kapoor et al., Proceedings of the National Academy of Sciences 2016, 113 (17) 4711-4716. For GLUT1, GLUT2, GLUT3 and GLUT4 specificity testing DLD1, CHO-hGLUT2, DLD-1-GLUT1−/− and CHO-hGLUT4 cell lines were used.
(§3) Assay protocols for 2-deoxy-Glucose (2-DG) Uptake Assay with DLD1 or DLD1-Glut1(−/−) cells or 7,000 CHOK1-SLC2A4 cells lines:
(§4) 14,000 DLD1 or DLD1-Glut1(−/−) cells or 7,000 CHOK1-SLC2A4 cells were seeded in black, clear bottom 384-well plates in glucose- and phenolred-free RPMI1640 medium supplemented with 1% FCS and 2 mM L-glutamine and allowed to attach overnight. Next day, cells were washed and incubated with compounds or DMSO and 1 mM 2-DG in glucose- and phenolred-free RPMI1640 medium for 30 min. Cells were then washed and lysed in 0.06 M HCl and 1% CHAPS for 15 min at 65° C. The amount of 2-DG in the lysate was determined by means of enzyme-coupled assay. For this 16 U/mL glucose-6-phosphate dehydrogenase, 0.2 U/mL diaphorase, 0.1 mM NADP^+ and 10 μM resazurin were added to the lysates. Resorufin fluorescence was determined as a measure of 2-DG uptake at ex/em 535/590 nm with a Victor Multilabel plate reader (Perkin Elmer). Blank values were subtracted from all readings and values were normalized to the DMSO control.

The target in a further assay is GLUT1 (Homo sapiens, UniProt P11166). The assay can be described thus: GLUT1 transporter activity assay (2-DG uptake) in DLD1 cells. Conditions: read-out: GLUT1 inhibitory activity (IC50); DLD1 cell line.
Description: as §1, §2, §3, §4

The target of a further assay is GLUT3 (Homo sapiens, UniProt P11169). In words: GLUT3 transporter activity assay (2-DG uptake) in DLD-1-GLUT1-/- cells. Particulars: read-out: GLUT3 inhibitory activity (IC50); DLD-1-GLUT1-/- cell line.
Description: as §1, §2, §3, §4

In the next assay the target is GLUT2 (Homo sapiens, UniProt P11168). In words: GLUT2 transporter activity assay in CHO-hGLUT2 cells (indirect, intracellular ATP levels). Particulars: read-out: GLUT2 inhibitory activity (IC50); CHO-hGLUT2 cell line.
Description: as §1, §2
Example 8-3: Indirect Measurement of GLUT2 (SLC2A2) Activity by Quantification of Intracellular ATP Levels
A combination of small-molecule inhibitors of mitochondrial electron transport chain and glucose catabolism synergistically suppress ATP production and impair cellular viability (Ulanovskaya et al., 2008, 2011; Liu, et al. 2001). We therefore used CHOK1 cells overexpressing SLC2A2 (CHOK1-SLC2A2) in combination with an oxidative phosphorylation inhibitor (Rotenon) to identify GLUT2 inhibitors. CHOK1-SLC2A2 cells were purchased from creative biogene (catNo: CSC-SC014484) and maintained in RPMI1640 supplemented with 10% FBS and 2 mM L-Glutamine. […] The CellTiter-Glo® Luminescence Viability Assay from Promega was used to measure ATP levels. Luminescence was measured with a Victor Multilabel plate reader (Perkin Elmer). Blank values were subtracted from all readings and values were normalized to the DMSO control.

As for `CC12CC(NC(=O)N1c1ccccc1)c1cccc(OCc3ccccc3)c1O2` (stereo not shown), the results for the IC50 at GLUT4, at GLUT1 and at GLUT3 were over 25 µM, 10 to 25 µM and 4 to 10 µM, respectively.
With `CC12CC(NC(=O)N1)c1cccc(OCc3ccccc3)c1O2` (stereo not shown), the IC50 at GLUT4, at GLUT1, on GLUT2 and on GLUT3 was over 25 µM in each case.
Turning to `Cc1ccc(CCNC(=O)c2cccc(N3C(=O)NC4CC3(C)Oc3c(O)cccc34)c2)cc1` (stereo not shown), the IC50 at GLUT4 is over 25 µM; on GLUT1 it was 10 to 25 µM; on GLUT3 it was 10 to 25 µM.
